Test results published in US9789092B2 (Assistance Publique—Hopitaux de Paris, priority 2013, dated 2017).

Test system: patient suffering from AMN
Method: At Month 5, a brain MRI with brain NMR spectroscopy (NMRS) was performed in the brain white matter.

In the case of O=C(O)CCCC[C@@H]1SC[C@@H]2NC(=O)N[C@@H]21 [biotin, Biotin], the Ch/NAA ratio (M5: 2013 Jun. 25, after treatment, baseline 0.90) is reported as 0.86, the Ch/Cr ratio (M5: 2013 Jun. 25, after treatment, baseline 1.50) is reported as 1.56 and the “N-acetyl aspartate (NAA)/creatine (Cr) ratio compared to baseline, in words” value (Month 5) is reported as “some improvement”.
